Experimental properties from OPERA 2.9

Data: OPERA 2.9 data sets, kmansouri/OPERA on GitHub.

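The numbers are reported measurements, compiled and curated for the OPERA QSAR suite. The files give a single number for a compound and property, which may rest on several reports. Method and conditions are not stated for these values. A value may pool stereoisomers or salt forms, and the file does not say which form was measured. Some upstream entries may be estimates or bounds without being marked so.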

The melting point is given in degrees Celsius. The boiling point refers to atmospheric pressure (760 mmHg), by the definition of the set. The octanol-water partition coefficient is given as log10; larger values mean a more lipophilic compound. Solubility in water is on a log10 molar scale (set defined at 25 °C). Vapor pressures (log10 mmHg) refer to near room temperature, 15 to 30 °C; higher is more volatile. The Henry's law constant is on a log10 scale in atm·m3/mol (set defined at 25 °C); higher favours air over water. The unbound fraction in human plasma runs from 0 (all bound) to 1 (all free). Intrinsic clearance (human, µL/min per 10^6 hepatocytes): higher is faster turnover, and 0 stands for none detected.

O=C(NC(=O)c1c(F)cccc1F)Nc1ccc(Cl)cc1 is reported with bp 257 °C and log solubility -6.4 (log10 mol/L) and plasma fu 0.0308 and Clint 0 µL/min/10^6 cells.
[NH4+].n1n[nH]c([N-]c2nnn[nH]2)n1 is reported with logP -0.196 and vapor pressure -11.01 (log10 mmHg).
CCCCCC1(CC)C(=O)NC(=O)NC1=O is reported with mp 135 °C and log solubility -2.26 (log10 mol/L).
O=C(CC(CP1(=O)Oc2ccccc2-c2ccccc21)C(=O)OCCO)OCCO (configuration not stated) is reported with log solubility -4.462 (log10 mol/L) and vapor pressure -7.251 (log10 mmHg).
COC(=O)[N-]S(=O)(=O)c1ccc(N)cc1.[Na+] is reported with log solubility 0.58 (log10 mol/L) and vapor pressure -8.426 (log10 mmHg).
CCCN(CCC)c1c([N+](=O)[O-])cc(C(F)(F)F)cc1[N+](=O)[O-] is reported with plasma fu 0.00376 and Clint 210 µL/min/10^6 cells.
CC(C)COP(=O)(OCC(C)C)OCC(C)C is reported with logP 3.71 and log solubility -3.004 (log10 mol/L) and vapor pressure -2.694 (log10 mmHg).
CCCCSP(SCCCC)SCCCC is reported with log solubility -5.11 (log10 mol/L) and vapor pressure -4.699 (log10 mmHg) and Henry's law constant -4.644 (log10 atm·m3/mol).
Clc1cc2c(oc3cc(Cl)c(Cl)c(Cl)c32)c(Cl)c1Cl is reported with mp 233 °C and log solubility -10.33 (log10 mol/L) and vapor pressure -7.255 (log10 mmHg).
CC1(C(=O)Nc2ccc(O)c(Cl)c2Cl)CCCCC1 is reported with log solubility -4.18 (log10 mol/L) and vapor pressure -8.523 (log10 mmHg) and Henry's law constant -10.31 (log10 atm·m3/mol) and plasma fu 0.05753.
CC(C)CC(C)Nc1ccc(Nc2ccccc2)cc1 (configuration not stated) is reported with bp 360 °C and logP 4.62 and log solubility -5.294 (log10 mol/L).
Cl/C=C/C[N+]12CN3CN(CN(C3)C1)C2.[Cl-] is reported with logP -0.1 and vapor pressure -7 (log10 mmHg).
Nc1cc(Cl)cc(C(=O)O)c1Cl is reported with logP 1.11 and vapor pressure -2.156 (log10 mmHg) and Clint 0 µL/min/10^6 cells.
O=P1(NCCNP2(=O)Oc3ccccc3-c3ccccc32)Oc2ccccc2-c2ccccc21 (configuration not stated) is reported with mp 272.6 °C and logP 2.258.
CC[C@@H](C(=O)O)[C@@H]1O[C@@H]([C@@H](C)[C@H](O)[C@H](C)C(=O)[C@H](CC)[C@H]2O[C@]3(C=C[C@@H](O)[C@]4(CC[C@@](C)([C@H]5CC[C@](O)(CC)[C@H](C)O5)O4)O3)[C@H](C)C[C@@H]2C)[C@@H](C)C[C@@H]1C is reported with mp 98 °C and log solubility -3.879 (log10 mol/L).
CCOCn1c(-c2ccc(Cl)cc2)c(C#N)c(Br)c1C(F)(F)F is reported with vapor pressure -7.133 (log10 mmHg) and Henry's law constant -8.242 (log10 atm·m3/mol).
CCP(=O)([O-])CC.[Na+] is reported with mp 310 °C and logP -1.88.
C1=CC2C3C=CC(C3)C2C1 (configuration not stated) is reported with logP 2.78 and log solubility -3.699 (log10 mol/L) and Henry's law constant -1.201 (log10 atm·m3/mol).
ClCc1ccccc1Cl is reported with logP 3.32 and vapor pressure -0.824 (log10 mmHg).
CCOC(=O)CSP(=S)(OCC)OCC is reported with log solubility -3.6 (log10 mol/L) and vapor pressure -3.272 (log10 mmHg) and Henry's law constant -6.453 (log10 atm·m3/mol).
O=C1NC(=O)N(Cc2ccccc2)C(=O)C1c1ccccc1 (configuration not stated) is reported with bp 342.8 °C and logP 2.57 and log solubility -3.206 (log10 mol/L) and vapor pressure -8.782 (log10 mmHg).

Excerpt, the final 3 entries:

{"smiles": "ClCc1ccccc1Cl", "logP": "3.32", "vapor pressure (log10 mmHg)": "-0.824"}
{"smiles": "CCOC(=O)CSP(=S)(OCC)OCC", "log solubility (log10 mol/L)": "-3.6", "vapor pressure (log10 mmHg)": "-3.272", "Henry's law constant (log10 atm·m3/mol)": "-6.453"}
{"smiles": "O=C1NC(=O)N(Cc2ccccc2)C(=O)C1c1ccccc1", "stereo": "configuration not stated", "bp (°C)": "342.8", "logP": "2.57", "log solubility (log10 mol/L)": "-3.206", "vapor pressure (log10 mmHg)": "-8.782"}